Data: PubChem BioAssay AID493221 (Johns Hopkins Ion Channel Center, 2011)
This is a selection; strong and weak results do not stand in their true shares. Some results for these compounds are left out of this collection, so the calls shown say nothing about other tests. Activity calls are given as the source filed them.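 Rule for the calls: active = choline transporter activity left, mean of duplicates at 10 µM, below buffer-only control mean minus 3 SD; inactive = the rest.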

Chains of the proteins cited; added tags and fusions are not shown. Lines headed by an entry give the natural chain unless they say otherwise; changes in a name come on top.
UniProt Q9GZV3, whole entry, stated change not applied: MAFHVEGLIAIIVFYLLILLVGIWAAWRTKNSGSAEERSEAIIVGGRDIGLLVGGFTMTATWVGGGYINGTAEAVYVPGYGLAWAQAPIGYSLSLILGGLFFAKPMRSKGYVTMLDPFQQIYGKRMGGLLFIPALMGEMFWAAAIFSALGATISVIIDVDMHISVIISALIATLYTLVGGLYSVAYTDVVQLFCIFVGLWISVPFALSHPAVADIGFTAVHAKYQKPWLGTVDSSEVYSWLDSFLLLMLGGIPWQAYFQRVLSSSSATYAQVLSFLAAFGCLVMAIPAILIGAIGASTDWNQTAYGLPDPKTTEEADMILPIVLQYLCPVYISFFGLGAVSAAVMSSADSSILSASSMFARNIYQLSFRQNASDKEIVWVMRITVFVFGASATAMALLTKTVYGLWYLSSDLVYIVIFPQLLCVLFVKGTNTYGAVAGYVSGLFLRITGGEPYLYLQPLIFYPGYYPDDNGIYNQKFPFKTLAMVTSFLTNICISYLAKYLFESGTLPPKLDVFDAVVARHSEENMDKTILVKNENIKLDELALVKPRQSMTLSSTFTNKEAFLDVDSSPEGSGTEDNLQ

molecular target: High affinity choline transporter 1 (Homo sapiens) (UniProt Q9GZV3); assay: CHT inhibitors, confirmation, cell-based, membrane potential dye, duplicate (AID 493221); details: CHT-expressing cells, at 10 µM, LV-to-AA substituted CHT, HEK293 cells

Q: Which inhibition does the source give for CCCCC(CC)C(=O)N1CCN(C/C=C/c2ccccc2)CC1 (stereo unspecified) here?
A: inactive: 0%
